This is a selection; strong and weak results do not stand in their true shares. Inconclusive results are not listed. Activity calls are given as the source filed them. Calls come from the whole dose curve; as a rule, active = well fitted activation curve with a large enough effect; inconclusive = small, poorly fitted or top-dose-only effect, or another doubt; inactive = no such curve, though single readings can be large or run the other way.
Experiment: qHTS of TDP-43 Inhibitors; note: % of control where 0% means no effect; nearly all actives have a fitted effect of over 50% in size
Settings: TDP-43 expressing yeast growth rescue, BacTiter-Glo, 24 h; at 46.1 µM (top of the series) unless noted

Compound	growth rescue (activation)
CCOc1ncccc1C(=O)NCC1(N2CCOCC2)CCCCC1	inactive: 7.96%
CN1CCC(Nc2ccc(F)c(Cl)c2)CC1	inactive: -29.7%
CC(C)(C)OC(=O)N1CCC(Nc2ccccc2)CC1	inactive: -25.4% [at 0.397 µM]
O=C(O)C1(Nc2ccccc2)CCN(Cc2ccccc2)CC1	inactive: 24%
NN(c1ccccc1)C1CCN(CCc2ccccc2)CC1	inactive: 15.5%
O=c1[nH]c2ccccc2n1C1CCN(C(c2cc3ccccc3o2)c2nnnn2C2CCCC2)CC1 (centres undefined)	inactive: 19.4%
CCCOc1ccc(C(=O)NCC2(N(C)C)CCCCC2)cc1	inactive: 3.58%
COc1cccc(C(c2nnnn2C2CCCC2)N2CCC(n3c(=O)[nH]c4ccccc43)CC2)c1OC (centres undefined)	inactive: 0%
COc1cc(OC)cc(C(=O)NCC2(N3CCOCC3)CCCCC2)c1	inactive: 12.6%
COc1cc(C(=O)NCC2(N3CCOCC3)CCCCC2)cc(OC)c1OC	inactive: 9.81%
COc1cccc(C(=O)N(c2cc(C)cc(C)c2)C2CCN(C(=O)OC(C)(C)C)CC2)c1	inactive: -13.5%
CCC(CO)(C(=O)OC1CN2CCC1CC2)c1ccccc1 (centres undefined)	inactive: -5.65%
CN1CCC(Nc2ccc(Cl)cc2)CC1	inactive: -10.9%
COc1cccc(C(c2nnnn2C2CCCCC2)N2CCC(n3c(=O)[nH]c4ccccc43)CC2)c1OC (centres undefined)	inactive: 21%
CN(C)C1(CNC(=O)c2ccc(C(C)(C)C)cc2)CCCCC1	inactive: -13.6%
CC(=O)N(c1ccccc1)C1CCNCC1	inactive: -11%
CCC(c1nnnn1C1CCCCC1)N1CCC(n2c(=O)[nH]c3ccccc32)CC1 (centres undefined)	inactive: 0%
COc1cc(OC)cc(C(=O)NCC2(N3CCCCC3)CCCCC2)c1	inactive: 4.5%
O=c1[nH]c2ccccc2n1C1CCN(C(c2ccnc3ccccc23)c2nnnn2C2CCCCC2)CC1 (centres undefined)	inactive: 17.3%
Cc1ccc(C(=O)NCC2(N3CCCCC3)CCCCC2)o1	inactive: 3.07%

Compound	growth rescue (activation)
Fc1ccccc1NC1CCN(Cc2ccccc2)CC1	inactive: -16.7%
Cc1ccc(NC2(C#N)CCN(Cc3ccccc3)CC2)cc1	inactive: -11.4%
Cc1ccccc1NC1(C#N)CCN(Cc2ccccc2)CC1	inactive: -4.42%
CCN1CCC(Nc2cccc(F)c2)CC1	inactive: 2.22%
COc1ccc(C(c2nnnn2C2CCCCC2)N2CCC(n3c(=O)[nH]c4ccccc43)CC2)cc1 (centres undefined)	inactive: 26.8%
CC(C)(C)n1nnnc1C(c1ccnc2ccccc12)N1CCC(n2c(=O)[nH]c3ccccc32)CC1 (centres undefined)	inactive: 9.36%
Cc1ccccc1C(=O)NCC1(N(C)C)CCCCC1	inactive: 13.2%
O=C(NCC1(N2CCCCC2)CCCCC1)c1ccco1	inactive: 14.5%
CC(C)(C)c1ccc(C(=O)NCC2(N3CCOCC3)CCCCC2)cc1	inactive: 12.9%
CN(C)c1ccc(C(=O)NCC2(N3CCCCC3)CCCCC2)cc1	inactive: 7.64%
Cn1c(=O)[nH]cc(N(CCCl)CCCl)c1=O	inactive: 15.9%
N#Cc1ccc(C(=O)NCC2(N3CCCCC3)CCCCC2)cc1	inactive: -15.2%
O=C(NCC1(N2CCOCC2)CCCCC1)c1ccccc1[N+](=O)[O-]	inactive: -33.2%
O=C(NCC1(N2CCOCC2)CCCCC1)c1ccc([N+](=O)[O-])cc1	inactive: 5.36%
CC(C)(C)OC(=O)N1CCC(N(C(=O)c2ccccc2)c2ccc(Cl)cc2)CC1	inactive: 10.5%
CCOC(=O)C(CC)C1=NC(C)(C)Cc2ccccc21.O=[N+]([O-])c1cc([N+](=O)[O-])c(O)c([N+](=O)[O-])c1 (centres undefined)	inactive: 6.18%
CN(C)C1(CNC(=O)c2cccc(C#N)c2)CCCCC1	inactive: 0.44%
c1ccc(CN2CCC(Nc3ccccc3)CC2)cc1	inactive: 4.91%
O=C(NCC1(N2CCOCC2)CCCCC1)c1ccccc1	inactive: 4.36%
CCCN1CCC(Nc2cc(OC)cc(OC)c2)CC1	inactive: 9.35%

Compound	growth rescue (activation)
O=c1[nH]c2ccccc2n1C1CCN(C(c2ccccc2)c2nnnn2C2CCCC2)CC1 (centres undefined)	inactive: 25.1%
CCCCn1nnnc1C(c1ccccc1)N1CCC(n2c(=O)[nH]c3ccccc32)CC1 (centres undefined)	inactive: 22.1%
COc1cc(C(=O)NCC2(N3CCOCC3)CCCCC2)cc(OC)c1C	inactive: 14.3%
O=C(NCC1(N2CCOCC2)CCCCC1)c1cc(Br)ccc1Cl	inactive: -0.177%
O=c1[nH]c2ccccc2n1C1CCN(C(c2cccs2)c2nnnn2C2CCCCC2)CC1 (centres undefined)	inactive: 33.7%
COc1ccc(C(=O)NCC2(N3CCOCC3)CCCCC2)cc1OC	inactive: -5.76%
O=c1[nH]c2ccccc2n1C1CCN(C(c2ccnc3ccccc23)c2nnnn2C2CCCC2)CC1 (centres undefined)	inactive: 0%
CCOC(=O)N1CCC(Nc2ccc(C)cc2)CC1	inactive: 20.5%
COc1cccc(C(c2nnnn2C(C)(C)C)N2CCC(n3c(=O)[nH]c4ccccc43)CC2)c1OC (centres undefined)	inactive: 21.4%
N/C(=N\O)c1c(N)no[n+]1[O-]	inactive: -55.9%
CCc1cc(C(=O)NCC2(N3CCCCC3)CCCCC2)sc1C	inactive: -4.76%
O=C(OC1CN2CCC1CC2)C1c2ccccc2C=Cc2ccccc21 (centres undefined)	inactive: 16.2%
O=C(O)c1cccc(Nc2c([N+](=O)[O-])cc([N+](=O)[O-])cc2[N+](=O)[O-])c1	inactive: 23.6%
O=c1[nH]c2ccccc2n1C1CCN(C(c2cccs2)c2nnnn2C2CCCC2)CC1 (centres undefined)	inactive: 34.2%
CCCCn1nnnc1C(c1cccc(OC)c1OC)N1CCC(n2c(=O)[nH]c3ccccc32)CC1 (centres undefined)	inactive: 12.2%
CC(C)c1ccc(NC2CCN(C(=O)OC(C)(C)C)CC2)cc1	inactive: -18.8%
CCCCn1nnnc1C(c1ccccc1OC(F)(F)F)N1CCC(n2c(=O)[nH]c3ccccc32)CC1 (centres undefined)	inactive: 25.2%
O=[N+]([O-])c1cc([N+](=O)[O-])c(OC2CCCCC2O)c([N+](=O)[O-])c1 (centres undefined)	inactive: -13.9%
CN(C)c1cccc(C(=O)NCC2(N3CCCCC3)CCCCC2)c1	inactive: -13%

Source: PubChem BioAssay AID652104 (National Center for Advancing Translational Sciences (NCATS), 2013)
